# Patent US20160032398A1, “METHODS FOR TREATING CANCER” (COMBIMMUNE, INC., priority 2013, published 2016)
# Key:
# CD137 = experiment: In vitro TGS co-culture of splenocytes and EGFR-expressing B16 melanoma cells: CD137+ cells; type: cell-based, C57BL6 mice; details: Day 7 of co-culture, vs control without cetuximab
# Description: In order to determine if the two gene score (TGS) can be evaluated in vitro, a co-culture assay system that utilizes the main components from the tumor microenvironment, namely tumor cells and immune cells, was developed. EGFR-expressing B16 melanoma cells were cultured with whole splenocytes isolated from C57BL6 mice. […] The rational for the experimental design was that the antibody enables and activates NK cells and other cells involved in antibody-dependent cell-mediated cytotoxicity (ADCC) to mediate killing of the tumor cells. The activated immune cells express CD137.
# B16 melanoma tumors [1] = experiment: Control, EGFR-expressing and chemerin-secreting B16 tumors: tumor size (Example 11); type: in vivo, mice; details: EGFR-expressing B16 tumors treated with cetuximab; Day 11; vs control tumors (not expressing EGFR) treated with cetuximab; FIG. 16
# Description: (§1) In a separate experiment, three cohorts of mice were inoculated with B16 melanoma tumors. One group had control tumors, one group had tumors that expressed human EGFR, and the third group had tumors secreting the chemoattractant chemerin, mimicking intratumoral injection or treatment with chemerin. Each group comprised three mice. Tumors were allowed to grow until Day 9. […] Forty-eight hours after the single injection (Day 11), the tumors from all three groups were analyzed for infiltrating NK and T cells, as well as CD137 (TNFRSF9) expression.
# The same tumors from the three groups were analyzed for tumor size (mm^2), a surrogate for clinical outcomes and survival, at pretreatment ([…]) and post-treatment (Day 11).
# B16 melanoma tumors [2] = experiment: Control, EGFR-expressing and chemerin-secreting B16 tumors: tumor-infiltrating leukocytes by FACS (Example 11); type: in vivo, mice; details: FIG. 13A
# Description: as §1
# CD137 (TNFRSF9) = experiment: CD137 expression on tumor-infiltrating leukocytes by FACS (Example 11); type: in vivo, mice; details: EGFR-expressing B16 tumors, 48 hours after cetuximab; vs control tumors treated with cetuximab; FIG. 14
# Description: as §1
substance,measurement,setting,value
cetuximab: therapeutic anti-human EGFR antibody,percentage of CD45+ leukocytes that were CD137+,CD137; FIG. 22A,significantly increased
same,percentage of NK cells that were CD137+,CD137; FIG. 22B,significantly increased
same,tumor size,B16 melanoma tumors [1],significantly smaller than control tumors
same,percentage of tumor-infiltrating leukocytes (TIL),"B16 melanoma tumors [2]; B16 tumors without EGFR antigen (non-responder), cetuximab Day 9, analysed Day 11",significantly lower percentage of tumor-infiltrating leukocytes
same,total tumor-infiltrating leukocytes (TIL),"B16 melanoma tumors [2]; EGFR-expressing B16 tumors, cetuximab 200 ug i.p. Day 9, analysed Day 11",increase in total tumor-infiltrating leukocytes
same,CD137 expression on total tumor-infiltrating leukocytes (FACS),CD137 (TNFRSF9),increase in CD137 expression
